Reference: patent US7879852B2, “Melanocortin receptor agonists” (LG Life Sciences Ltd., priority 2006, dated 2011)

Sequences of proteins named here, by UniProt entry; tags and fusion partners are left off.
UniProt P32245, whole entry: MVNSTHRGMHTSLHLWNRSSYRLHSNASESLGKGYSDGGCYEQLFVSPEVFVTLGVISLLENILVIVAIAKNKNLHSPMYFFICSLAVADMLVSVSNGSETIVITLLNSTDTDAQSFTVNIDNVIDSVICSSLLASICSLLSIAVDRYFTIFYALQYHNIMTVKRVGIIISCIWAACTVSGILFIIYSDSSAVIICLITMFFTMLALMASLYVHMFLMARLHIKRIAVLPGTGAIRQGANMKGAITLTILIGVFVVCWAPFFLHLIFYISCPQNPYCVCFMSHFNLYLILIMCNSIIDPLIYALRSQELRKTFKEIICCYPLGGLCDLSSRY

Molecular target: human melanocortin receptor 4 (MC4R) (Homo sapiens, UniProt P32245)
Assay: Luciferase assay
Conditions: agonistic activity at MC4R (Table 18); patent does not state whether luciferase or cAMP assay; tested form: salt (Table 4 scaffold prints only 'salt)
Protocol: Cell lines expressing human melanocortin receptor 4 (MC4R) were dissociated from tissue culture dishes by rinsing with Ca^++, Mg^++ free DPBS, treated with 1× Trypsin/EDTA solution for 1 min at 37° C., and resuspended with DMRM (GIBCO-BRL) supplemented with 10% FBS. The cells were counted and diluted with DMEM supplemented with 10% FBS and 200 ug/ml of Geneticin to […]. 90 ul of cell suspension was plated onto each well of 96-well black and clear bottom culture plates (Costar). After the incubation for 24 h in the atmosphere of 6% CO2 at 37° C., 10 ul of NDP-MSH and test compounds diluted in DMSO were added to each well. The final DMSO concentration was 1%. After 4 h of incubation in the atmosphere of 6% CO2 at 37° C., 50 ul of Bright-Glo (Promega) was added to each well. Luciferase activity was measured by using L-Max luminometer (Molecular Device). The amount of luciferase activity induced by treatment with NDP-MSH was defined as 100% to obtain the relative efficacy of test compounds. The EC0.5 MSH was defined as the concentration of test compounds that results in half maximal activity of NDP-MSH. The EC50 was defined as the concentration of test compound that results in half maximal activity of its own.

COC(=O)[C@@H]1C[C@H](N(C(=O)C(C)(C)C)C2CCC(C)(C)CC2)CN1C(=O)[C@@H]1CN(C(C)(C)C)C[C@H]1c1ccc(Cl)cc1
EC50: 54 nM
